One block for each binder: values may come before it.
Key:
[1] = biological target: GFP-Top2α-st1 (C-terminal-truncated, 42 amino-acid deletion) stably expressed in HTETOP cells (human, UniProt P11388); test: co-IP
[2] = biological target: ^35S-GFP-Top2α WT (in vitro-translated) (human, UniProt P11388, 35S-labelled); test: pull-down
[3] = biological target: ^35S-GFP-Top2α-st5 (C-terminal-truncated, 180 amino-acid deletion; in vitro-translated) (human, UniProt P11388, 35S-labelled); test: pull-down
[4] = biological target: DNA topoisomerase IIα (Top2α), endogenous (human (endogenous in HeLa; Pol Iβ …, UniProt P11388); test: far-Western, overlay or dot blot

fold decrease of co-immunoprecipitated amount against GFP-Top2α-WT [1]: ~6 fold
B1: RRN3, endogenous (Pol Iβ-specific component) (natural protein, UniProt Q9NYV6 1-651, looked up)
chain: MAAPLLHTRLPGDAAASSSAVKKLGASRTGISNMRALENDFFNSPPRKTVRFGGTVTEVLLKYKKGETNDFELLKNQLLDPDIKDDQIINWLLEFRSSIMYLTKDFEQLISIILRLPWLNRSQTVVEEYLAFLGNLVSAQTVFLRPCLSMIASHFVPPRVIIKEGDVDVSDSDDEDDNLPANFDTCHRALQIIARYVPSTPWFLMPILVEKFPFVRKSERTLECYVHNLLRISVYFPTLRHEILELIIEKLLKLDVNASRQGIEDAEETATQTCGGTDSTEGLFNMDEDEETEHETKAGPERLDQMVHPVAERLDILMSLVLSYMKDVCYVDGKVDNGKTKDLYRDLINIFDKLLLPTHASCHVQFFMFYLCSFKLGFAEAFLEHLWKKLQDPSNPAIIRQAAGNYIGSFLARAKFIPLITVKSCLDLLVNWLHIYLNNQDSGTKAFCDVALHGPFYSACQAVFYTFVFRHKQLLSGNLKEGLQYLQSLNFERIVMSQLNPLKICLPSVVNFFAAITNKYQLVFCYTIIERNNRQMLPVIRSTAGGDSVQICTNPLDTFFPFDPCVLKRSKKFIDPIYQVWEDMSAEELQEFKKPMKKDIVEDEDDDFLKGEVPQNDTVIGITPSSFDTHFRSPSSSVGSPPVLYMQPSPL

binding result [2]: binds
binding result [3]: binds
binding result [4]: binds
B2: ^35S-Flag-RRN3 (in vitro-translated, Flag-immunopurified human RRN3) (natural protein, UniProt Q9NYV6 1-651, looked up)
chain: B1 chain
modifications: 35S-methionine-labelled
